EC50 data for one compound are collected here from ChEMBL document CHEMBL1157677, “Silicon switch approach in TRPV1 antagonist MK-056 and its analogues” (Bioorg Med Chem, 2010).

By UniProt entry, the sequences of proteins in these tests, tags left out.
UniProt O35433, whole entry: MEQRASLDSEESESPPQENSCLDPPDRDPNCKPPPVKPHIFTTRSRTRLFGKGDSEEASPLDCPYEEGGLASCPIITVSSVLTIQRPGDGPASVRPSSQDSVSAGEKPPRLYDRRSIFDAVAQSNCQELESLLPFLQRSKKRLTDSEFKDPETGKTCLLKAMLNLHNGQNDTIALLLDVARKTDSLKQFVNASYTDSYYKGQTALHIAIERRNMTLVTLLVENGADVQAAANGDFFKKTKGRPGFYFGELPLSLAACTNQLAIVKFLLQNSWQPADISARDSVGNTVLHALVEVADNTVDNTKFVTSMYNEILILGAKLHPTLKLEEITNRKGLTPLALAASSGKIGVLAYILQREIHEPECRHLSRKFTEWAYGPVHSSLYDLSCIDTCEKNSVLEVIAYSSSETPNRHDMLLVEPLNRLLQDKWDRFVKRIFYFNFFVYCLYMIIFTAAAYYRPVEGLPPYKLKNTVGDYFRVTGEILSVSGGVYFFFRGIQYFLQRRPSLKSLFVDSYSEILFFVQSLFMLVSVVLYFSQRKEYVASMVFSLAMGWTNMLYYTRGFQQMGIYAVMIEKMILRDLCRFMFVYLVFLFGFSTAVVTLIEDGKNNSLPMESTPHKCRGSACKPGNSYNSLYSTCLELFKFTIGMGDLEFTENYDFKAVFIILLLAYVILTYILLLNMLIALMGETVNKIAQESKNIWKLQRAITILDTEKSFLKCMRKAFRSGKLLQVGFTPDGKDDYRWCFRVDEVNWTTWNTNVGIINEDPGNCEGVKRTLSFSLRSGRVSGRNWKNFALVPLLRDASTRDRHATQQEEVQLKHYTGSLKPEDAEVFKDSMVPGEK

Each structure is given as a SMILES string.

For this experiment, the target named is Transient receptor potential cation channel subfamily V member 1 (Rattus norvegicus, UniProt O35433). Kind of experiment: Agonist activity at TRPV1 in Sprague-Dawley rat DRG neuron assessed as intracellular 45Ca2+ influx by scintillation counting. It is filed as functional, cell-based.

As to `CC(C)(C)c1ccc(CNC(=S)NCc2ccc(NS(C)(=O)=O)cc2)cc1`, the half-maximal effective concentration (EC50) was more than 100 µM.
